The conditions of data set [1]: 3×3 cm patch, rhesus monkeys; cited from earlier work.
Data set [2] can be described thus: Phase I study: oral pyridostigmine bromide with or without oral aprepitant, gastro-intestinal adverse effects and tolerated dose.
The nature of data set [3]: Phase I study: oral pyridostigmine bromide with or without oral ondansetron, gastro-intestinal adverse effects and tolerated dose.

`CNC(=O)Oc1ccc2c(c1)[C@]1(C)CCN(C)[C@@H]1N2C`: the blood concentration in data set [1] was 0.54 ng/mL.

For `OC(CCN1CCCC1)(c1ccccc1)C1CCCCC1` (stereo not drawn), the blood concentration in data set [1] is 10.8 ng/mL.

As for `CN(C)C(=O)Oc1ccc[n+](C)c1`, in data set [2] (co-administered with oral aprepitant), the “pyridostigmine dose given without gastro-intestinal AEs, relative to the recommended efficacious dose for OP poisoning” value is given as “up to 6 times”. For the same compound, the “highest tolerated daily dose of pyridostigmine” value is “generally exceeding the recommended dose for the treatment of OP poisoning” in data set [2] (in the presence of aprepitant, oral, human subjects) and “generally exceeding the recommended dose for the treatment of OP poisoning” in data set [3] (in the presence of ondansetron, oral, human subjects).

In the case of `C[C@@H](O[C@H]1OCCN(Cc2n[nH]c(=O)[nH]2)[C@H]1c1ccc(F)cc1)c1cc(C(F)(F)F)cc(C(F)(F)F)c1`, the “gastro-intestinal AEs reported with pyridostigmine alone at FID” value in data set [2] (co-administration of aprepitant (80 mg to 120 mg oral) with pyridostigmine at first intolerable dose (FID), human subjects) is recorded as “attenuated gastro-intestinal AEs”. Further, in data set [2] (oral aprepitant with pyridostigmine in doses as high as or higher than the recommended efficacious dose for OP poisoning), the “occurrence of gastro-intestinal AEs” value is “prevented the occurrence of gastro-intestinal AEs”.

For the compound `Cc1nccn1CC1CCc2c(c3ccccc3n2C)C1=O` (racemic), the “gastro-intestinal AEs reported with pyridostigmine alone at FID” value in data set [3] (co-administration of ondansetron hydrochloride dihydrate 10 mg oral with pyridostigmine at first intolerable dose (FID), human subjects) is recorded as “attenuated gastro-intestinal AEs”. Moreover, in data set [3] (oral high dose ondansetron with pyridostigmine in doses as high as or higher than the recommended efficacious dose for OP poisoning), the “occurrence of gastro-intestinal AEs” value was “prevented the occurrence of gastro-intestinal AEs”.

The values are drawn from patent US12390454B2, “Use and composition for protection against organophosphorus poisoning” (dated 2025).
